One may read the Tmax as the time from dosing to the highest level.

This is an account of results in patent publication US20210361600A1, “METHODS FOR INDUCING CHONDROGENESIS” (THE SCRIPPS RESEARCH INSTITUTE, priority 2017, published 2021).

Series [1] is described as follows: in vivo. As to conditions: dog, iv.
Series [2] is described as follows: in vivo. More on the design: species or system Crl:CD(SD) rat. As to conditions: rat.
Series [3] can be described thus: Intravenous acute toxicity study in Crl:CD(SD) rat (toxicokinetics). The format is in vivo. Conditions: plasma, median. The procedure: The plasma TK of compound A was determined after a single IV dose in Crl:CD(SD) rats. […] For toxicokinetic evaluation, an additional 3 rats/sex/group were added for the 1 or 2.4 mg/kg dose groups. Toxicokinetic parameters were determined, where feasible, by non-compartmental analysis.

The nature of series [4]: Final dose PK in the canine osteoarthritis study. As to conditions: beagle, dog, 0.035 mg/knee; female Beagles, 35 μg IA weekly, after 6th dose, plasma; individual animals 1-6. In kind it is in vivo, Beagle dogs. From the text:
Acetonitrile, water (Optima, LC/MS Grade) and formic acid, 99+% (Optima, LC/MS Grade) were purchased from Fisher Scientific. Control Female Sprague Dawley rat plasma (Sodium Heparin, 0.2 u filtered) was purchased from Bioreclamation IVT. Chromatography HPLC column, Luna, 5 um C18 (2), 50×2.0 mm and its guard security cartridge and holder were purchased from Phenomenex. HPLC (1100 Series) was purchased from Agilent. The Mass Spectrometer system, API 3000 was purchased from SCIEX. Separation was performed on a reversed phase C18 column with a gradient elution using mobile phases of 0.1% formic acid in water (A) and 0.1% formic acid in acetonitrile (B) with flow rate at 0.6 mL/min. […] Multiple reaction monitoring (MRM) was used for drug quantification, Precursor to Product ion transition was 347.0>268.9 (m/z). MRM for internal standard Kartogenin was 316.0>272.0 (m/z).
Calibration Standard curves were generated in rat plasma ranging from 1.53 to 781.3 ng/mL. Standards and samples were both prepared by protein precipitation (using internal standard, Kartogenin or KGN at 250 ng/mL in cold acetonitrile) and centrifugation. […]
Female Beagles underwent medial meniscal tear surgery to induce osteoarthritis. […] (a) AUC0-2=area under the plasma concentration-time curve (AUC) from the start of dosing (0) to the last quantifiable time point (τ), which was 2 hours. […]

A short description of series [5]: in vivo. Conditions: both sexes, Crl:CD(SD), rat.
The nature of series [6]: in vivo. Conditions: beagle, dog.
Series [7] in a line: Intra-articular acute toxicity study in the Beagle dog (toxicokinetics). Conditions: for Tmax: male, beagle, dog, plasma.

Consider `COCCc1ccc(NC(=O)c2ccccc2NS(C)(=O)=O)cc1` [Compound A, N-(4-(2-methoxyethyl)phenyl)-2-(methylsulfonamido)benzamide], for which the Tmax was 10.2 min in “in vivo [1]” (both, beagle); 10.2 min in the series “in vivo [1]” (female, Beagle, 0.125 mg/kg); 10.2 min in “in vivo [1]” (female, Beagle, 0.6 mg/kg); 10.2 min in “in vivo [1]” (female, Beagle, 1.25 mg/kg); 10.2 min in the series “in vivo [1]” (male, beagle, 0.125 mg/kg); 10.2 min in the series “in vivo [1]” (male, beagle, 0.6 mg/kg). Moreover, the Tmax was determined as 10.2 min in the series “in vivo [1]” (male, beagle, 1.25 mg/kg); 60 min in the series “in vivo [2]” (female, Crl:CD(SD), 70 ug/kg); 4.8 min in series [3] (female rats, single IV 1 mg/kg); 4.8 min in series [3] (female rats, single IV 2.4 mg/kg); 4.8 min in series [3] (male rats, single IV 1 mg/kg); 4.8 min in series [3] (male rats, single IV 2.4 mg/kg). The Tmax was 30 min in series [4]; 4.8 min in the series “in vivo [5]”; 19.8 to 60 min in “in vivo [6]” (both); 60 min in the series “in vivo [6]” (male); 4.8 min in series [7] (35 μg/knee, Tmax, male dogs, single IA 35 μg/knee, individual animals 41M, 42M); 60 min in series [7] (100 μg/knee, Tmax, male dogs, single IA 100 μg/knee, individual animals 43M, 44M). For the same molecule, the Tmax in series [7] (other: intra-articular, plasma Tmax, doses of 35, 100 and 200 ng, range) was 4.8 to 60 min. Besides, the “differences in systemic exposure following single and repeat IA administration” value in “in vivo [2]” is listed as “no significant”. In addition, in series [7] (single IA), the “dose proportionality of systemic plasma exposure (mean Cmax and AUC0-t)” value is “less than dose-proportional”.
